Key:
[1] = target: human β-Secretase (sBACE-Fc, soluble part AA 1-AA 460) (Homo sapiens (Human), UniProt P56817); test: TR-FRET assay; type: biochemical; settings: read-out: IC50 in TR-FRET assay; standard TR-FRET assay (values without footnote a)
[2] = tested on: sAPPβ release in SH-SY5Y cells; test: sAPPβ release assay; type: cell-based; settings: read-out: IC50 in sAPPβ release assay, 17 h incubation

Chains of the proteins cited; added tags and fusions are not shown. Residues count along the entry.
UniProt P56817, 22-460 limits assumed: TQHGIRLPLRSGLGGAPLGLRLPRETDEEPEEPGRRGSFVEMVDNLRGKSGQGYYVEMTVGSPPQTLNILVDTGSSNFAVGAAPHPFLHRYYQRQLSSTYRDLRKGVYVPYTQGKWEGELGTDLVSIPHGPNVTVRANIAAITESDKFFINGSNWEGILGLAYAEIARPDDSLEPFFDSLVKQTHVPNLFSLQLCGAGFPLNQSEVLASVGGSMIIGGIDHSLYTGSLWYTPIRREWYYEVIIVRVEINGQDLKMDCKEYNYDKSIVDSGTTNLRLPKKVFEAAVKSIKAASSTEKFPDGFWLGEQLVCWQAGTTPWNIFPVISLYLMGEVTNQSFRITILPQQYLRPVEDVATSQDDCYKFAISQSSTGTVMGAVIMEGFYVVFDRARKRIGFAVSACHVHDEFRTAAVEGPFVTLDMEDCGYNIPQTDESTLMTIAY

## CC1=N[C@@]2(N=C1N)c1cc(Br)ccc1C[C@]21CC[C@@H](O)CC1 (single isomer, unassigned)
[1]
  IC50: > 4950 nM

## CO[C@H]1CC[C@]2(CC1)Cc1ccc(C#CC(C)C)cc1[C@]21N=C(C)C(N)=N1 (single isomer, unassigned)
[2]
  IC50: 56 nM

## CO[C@H]1CC[C@]2(CC1)Cc1ccc(C#CC3CCC3)cc1[C@]21N=C(C)C(N)=N1 (single isomer, unassigned)
[2]
  IC50: 678 nM

## CC1=N[C@@]2(N=C1N)c1cc(OCC(C)C)ccc1C[C@]21CC[C@@H](O)CC1 (single isomer, unassigned)
[1]
  IC50: > 5000 nM
